Values of other authors as cited in patent publication US20140256766A1, “TRANSMUCOSAL DRUG DELIVERY SYSTEM” (priority 2013, published 2014).
Only a part of the results on these compounds is given; other tests are left out.

Conditions: current transmucosal therapy, lollipop

In the case of `CCC(=O)N(c1ccccc1)C1CCN(CCc2ccccc2)CC1`, the “time to reach maximum plasma concentrations” value is listed as “over 20 minutes”.
